# Binding of CDR-mutated scFvs to a peptide of the spike HR2 region

The measurements come from Li et al. 2023 (doi:10.1038/s41467-023-39022-2) through the FLAb antibody collection.

All variants were tested on one target, the spike HR2 peptide PDVDLGDISGINAS (SARS-CoV-2).

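The variants were designed computationally from a first round of random CDR variants and then made and measured. Group labels follow the data file (En: ensemble of fine-tuned language models; GP: Gaussian process model; HC: hill climbing; Gen: genetic algorithm; Gibbs: Gibbs sampling; a sequence that several methods proposed may carry one label only). The assay is AlphaSeq: two haploid yeast populations carry antibody and antigen on their surface. After mating in shaken culture at 30 °C for 16 h, diploids were selected and their barcode pairs sequenced. Scores were corrected for input abundance and mapped to Kd with protein pairs of known affinity run in the same pool. Each pool was mated in six replicate cultures.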

Ab-14 is the parent antibody, in scFv form: VH, then three GGGGS repeats, then VL. The heavy chain is unchanged in all variants.
VH: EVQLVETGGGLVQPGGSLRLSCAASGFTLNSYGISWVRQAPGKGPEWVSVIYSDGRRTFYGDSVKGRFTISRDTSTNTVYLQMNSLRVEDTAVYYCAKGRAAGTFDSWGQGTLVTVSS
VL: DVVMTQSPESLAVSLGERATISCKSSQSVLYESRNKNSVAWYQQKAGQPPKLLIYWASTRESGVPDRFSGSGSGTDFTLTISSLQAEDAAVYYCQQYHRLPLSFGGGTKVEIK

Variants are written as CDR1, CDR2 and CDR3 of the light chain (limits as in the source). Parent: KSSQSVLYESRNKNSVA, WASTRES, QQYHRLPLS. Variants here have more than six changes. Kd is apparent (estimated from mating counts) and averaged on the log scale over replicates with a signal. Smaller is tighter. "nd" means that the variant was in the library but no mating with the target was seen in any replicate; the authors take this as a sign of poor binding, and no number exists.

For TISQTTYWESRNKNSVA | QTSTREE | QDYDRLPLS [En_HC], the assay gave 1.2 nM (6 of 6 replicates; controls 0 of 18).
For KLHQSDGYEQRNKNSVA | SASTRSH | QQYHRLPLS [GP_Gibbs], the assay gave 1.9 nM (6 of 6 replicates; controls 1 of 18).
For KISMEPLVEENHAQAIA | DAHASYI | QQYFHLPLY [En_Gibbs], the assay gave 15 nM (6 of 6 replicates; controls 0 of 18).
For MVYQATMMGTSTRNSIA | NAQMRPD | QQYHRLPLI [En_Gen], the assay gave 8.8 nM (6 of 6 replicates; controls 1 of 18).
For MLSQMWALGSKVKNSVA | QASMRFN | QQYDRLPLM [En_Gen], the assay gave 45 nM (3 of 6 replicates; controls 0 of 18).
For HMSMLTLMGQRHRNSVA | QMTTRVN | QQYDRLPLA [En_Gen], the assay gave nd (0 of 6 replicates; controls 0 of 18).
For MMSMGSLTGMRARNNVA | QEETREK | QQYHRLPLI [En_HC], the assay gave nd (0 of 6 replicates; controls 0 of 18).
For MISQLQNMGSFAINSVA | QASLRNE | QQYDRLPLM [En_Gen], the assay gave 68 nM (6 of 6 replicates; controls 1 of 18).
For QFQFEDVQYTVNEQAIA | EENQRMQ | QQYFRLPLG [En_Gibbs], the assay gave 9.7 nM (6 of 6 replicates; controls 0 of 18).
For HITYGMQVAGRHSKSIA | QAETRMK | QQYDRLPLS [En_Gen], the assay gave nd (0 of 6 replicates; controls 0 of 18).
For KIMQSLNYESFNKNSVA | GQETREQ | QSYHRLPLS [En_HC], the assay gave 42 nM (1 of 6 replicates; controls 1 of 18).
For FMGGTKEMQSNEIGNIA | DMNERFA | QQYFQLPLS [En_Gibbs], the assay gave 4.4 nM (6 of 6 replicates; controls 1 of 18).
For KLLQTVNNGRYNRNNVA | HMTMRED | QQYFRLPLS [En_HC], the assay gave 130 nM (6 of 6 replicates; controls 0 of 18).
For TITGVMTQMSHSKNNVA | EVSTRLP | QQYFRLPLE [En_Gen], the assay gave 1.6 nM (6 of 6 replicates; controls 2 of 18).
For KLMQSTGYESRNKDSIA | DNSTRGR | QQYHRLPLS [En_HC], the assay gave 930 nM (6 of 6 replicates; controls 1 of 18).
For MVSQLMLWGLHAKNSIA | EAETRIN | QQYDRLPLF [En_Gen], the assay gave 7.4 nM (6 of 6 replicates; controls 0 of 18).
For MMSQVSGQGTRHRNNVA | QTSMRET | QQYDRLPLI [En_Gen], the assay gave 7.8 nM (6 of 6 replicates; controls 1 of 18).
For KVYQGINTHLGAHNSIA | QEETRLE | QQYAHLPLS [En_Gen], the assay gave 27 nM (6 of 6 replicates; controls 0 of 18).
For KLMQSVEQESRNKNSVA | HASLREV | QAYHRLPLS [GP_Gibbs], the assay gave 3.4 nM (6 of 6 replicates; controls 1 of 18).
For KISQMSTIESIHHNSVA | QTSTRES | QQYDRLPLS [En_HC], the assay gave 8.0 nM (6 of 6 replicates; controls 1 of 18).
For SMSNLQEVPSVWKNSIA | DAEHVEY | QQYSRLPLT [En_Gibbs], the assay gave 1.3 nM (6 of 6 replicates; controls 1 of 18).
For TLTGVMDMTSKNVNSVA | DLTTRGN | QQYHRLPLS [En_HC], the assay gave 3.6 nM (6 of 6 replicates; controls 1 of 18).
For KMSQEDMMLSRNWNSVA | QASTREQ | QQYHRLPLS [GP_Gibbs], the assay gave 770 pM (6 of 6 replicates; controls 1 of 18).
For KLMSVTGTEKVRGNNVA | EMETREK | QQYNRLPLS [En_Gen], the assay gave 20 nM (6 of 6 replicates; controls 0 of 18).
For HLLYAFNTGSLYDNNVA | EGETVLD | QQYFRLPIT [En_Gibbs], the assay gave nd (0 of 6 replicates; controls 0 of 18).
For KLSMVTGHSSVSKNNVA | EMETREE | QQYDRLPLS [En_Gen], the assay gave 3.1 nM (6 of 6 replicates; controls 0 of 18).
For TLTQSVMMESHNKNSVA | DLSTRGS | QQYHRLPLS [En_HC], the assay gave 2.1 nM (6 of 6 replicates; controls 1 of 18).
For MVSQIMLWGLHAKNSIA | EAQTRLN | QQYDRLPLF [En_Gen], the assay gave 84 nM (3 of 6 replicates; controls 0 of 18).
For TISQSTQQESHNKNSVA | DLSVRGS | QQYDRLPLS [En_HC], the assay gave 3.5 nM (6 of 6 replicates; controls 1 of 18).
For KVSQSNLYEQRNANNVA | NASLRES | QQYHRLPLS [GP_Gibbs], the assay gave 620 pM (6 of 6 replicates; controls 4 of 18).
For HISQMVMYGSCNKNNVA | QVSLRME | QQYHRLPLS [En_HC], the assay gave 250 nM (4 of 6 replicates; controls 0 of 18).
For NVRLNEGEIAMHMYAIA | GVDLRAD | QQYSRLPLF [En_Gibbs], the assay gave 5.3 nM (6 of 6 replicates; controls 0 of 18).
For TIGQMFNGESRNRNSVA | QASTRES | QSYDRLPLS [En_HC], the assay gave 40 nM (5 of 6 replicates; controls 0 of 18).
For TLYGLMLSMSKNKNSVA | EMTTREK | QQYDRLPLI [En_Gen], the assay gave 320 nM (3 of 6 replicates; controls 1 of 18).
For KLSMLMDTTRKNHNSVA | HVTTRSD | QQYNRLPFS [En_Gen], the assay gave 1.7 nM (6 of 6 replicates; controls 0 of 18).
For KVDQSVLGQSRNQNAVA | AASTRES | QQYHRLPLS [GP_Gibbs], the assay gave 1.4 nM (6 of 6 replicates; controls 3 of 18).

Excerpt, the first 2 entries:

For TISQTTYWESRNKNSVA | QTSTREE | QDYDRLPLS [En_HC], the assay gave 1.2 nM (6 of 6 replicates; controls 0 of 18).
For KLHQSDGYEQRNKNSVA | SASTRSH | QQYHRLPLS [GP_Gibbs], the assay gave 1.9 nM (6 of 6 replicates; controls 1 of 18).

The parent sequence was in this pool as ten entries: three were never detected, three once, and four in most replicates, with averages from 2.2 nM to 240 nM. The authors' rule: three or more of the six replicates give a measured affinity, fewer mean a poor binder. Background: pairings of all light chain designs with three empty control strains gave a value in 4% of cases (median 430 nM, 5th percentile 38 nM). Values in that range, when seen in few replicates, are hard to tell from nonspecific mating. The control count says in how many pairings with the empty strains this scFv gave a signal. The range of this assay differs from that of the first round, and the authors advise against merging the two.